Test results taken from patent publication US20080287478A1 (priority 2003, published 2008).
“And” between values parts separate entries of the source, which are not always exact repeats. Equal values may be shown once.

Sequences of proteins named here, by UniProt entry; tags and fusion partners are left off. A change or cut given only in a name is not applied to a line headed by its entry.
UniProt P41146: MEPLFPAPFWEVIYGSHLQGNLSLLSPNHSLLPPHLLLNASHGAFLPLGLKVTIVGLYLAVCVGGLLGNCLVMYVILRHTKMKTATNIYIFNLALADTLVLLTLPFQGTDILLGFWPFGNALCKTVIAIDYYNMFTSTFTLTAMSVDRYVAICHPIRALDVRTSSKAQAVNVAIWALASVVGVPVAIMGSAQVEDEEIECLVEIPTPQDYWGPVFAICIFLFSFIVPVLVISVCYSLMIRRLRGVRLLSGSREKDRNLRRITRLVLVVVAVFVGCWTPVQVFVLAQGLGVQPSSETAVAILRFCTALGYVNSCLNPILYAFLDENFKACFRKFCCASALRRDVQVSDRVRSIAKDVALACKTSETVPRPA

How the values were obtained:
Male SD/TAC rats = assay: Assay for diuretic activity (standard diuresis test, metabolic cages); type: in vivo, rat; details: for effect on diuresis (in words): discussion of the examples; for SC Dose at which max diuresis is achieved / Lovest Dose at which increased diuresis is achieved nMol/kg. I.e. >1.5 SC / SC max effect.: s.c.; for SC Dose at which max diuresis is achieved / Lovest Dose at which increased diuresis is achieved nMol/kg. I.e. >1.5 SC / PO Dose at which max diuresis is achieved / Lovest Dose at which increased diuresis is achieved nMol/kg. I.e. >1.5 PO / Lovest Dose at which increased diuresis is achieved nMol/kg. I.e. >1.5 IV: rats; for Lovest Dose at which increased diuresis is achieved nMol/kg. I.e. >1.5 SC / Lovest Dose at which increased diuresis is achieved nMol/kg. I.e. >1.5 PO / Lovest Dose at which increased diuresis is achieved nMol/kg. I.e. >1.5 IV: ratio >1.5; for SC max effect. / PO max effect.: ratio of urine from treated rats to vehicle control group, 1 is normal diuresis, NI = No increase (not greater than 1.5), max test dose 3000 nMol/kg; for PO Dose at which max diuresis is achieved / Lovest Dose at which increased diuresis is achieved nMol/kg. I.e. >1.5 PO / PO max effect.: p.o.; for Lovest Dose at which increased diuresis is achieved nMol/kg. I.e. >1.5 IV: i.v.
[1] = Oral bioavailability in Sprague-Dawley rats (i.v./p.o. bolus, plasma LC/MS/MS); details: for oral availability (in words): discussion of the examples; for F % (oral bioavailability) / T½ min (half-life): Sprague-Dawley rats; for F % (oral bioavailability): i.v. and p.o. bolus, cross-over, two rats, non-compartmental, Compound 40 and 11 values guidance only (corrected by factor 0.14); for T½ min (half-life): non-compartmental analysis
cloned hORL1 receptors = cloned hORL1 receptors (Homo sapiens, UniProt P41146); assay: hORL1 receptor mediated inhibition of forskoline-induced cAMP formation in HEK293 cells
mice = assay: Locomotor activity test (CNS effect); type: in vivo, mouse; details: i.v.
male NMRI mice = assay: Gridshock test (pain threshold, CNS effect); details: for observed effect after i.v. administration: nearly same effect as i.t. nociceptin

| Compound | agonism in efficacy assay (cloned hORL1 receptors) | SC Dose at which max diuresis is achieved (Male SD/TAC rats) [nmol/kg] | Lovest Dose at which increased diuresis is achieved nMol/kg. I.e. >1.5 SC (Male SD/TAC rats) [nmol/kg] | SC max effect. (Male SD/TAC rats) | Lovest Dose at which increased diuresis is achieved nMol/kg. I.e. >1.5 IV (Male SD/TAC rats) [nmol/kg] | CNS motility* (Minimal effective dose nmol/kg) (mice) [nmol/kg] | CNS grid shock* (Minimal effective dose nmol/kg) (male NMRI mice; i.v.) [nmol/kg] | also measured |
| --- | --- | --- | --- | --- | --- | --- | --- | --- |
| cis-3-(10-Aminoethyl-7,10,13-triazamidecan)-8-(4-isopropyl-cyclohexyl)-1-phenyl-1,3,8-triaza-spiro[4.5]decan-4-one | full agonism | – | – | – | – | – | – | effect on diuresis (in words) (Male SD/TAC rats): significantly increase diuresis; oral availability (in words) [1]: orally available |
| cis-3-N-(6-Methylaminohexyl)-(6-methylaminohexyl)-8-(4-isopropyl-cyclohexyl)-1-phenyl-1,3,8-triaza-spiro[4.5]decan-4-one | full agonism | 100 | 100 | 2.5 | – | – | – | – |
| trans-3-(13-Aminoethyl-10,13,16-triazahexadecan)-8-(4-isopropyl-cyclohexyl)-1-phenyl-1,3,8-triaza-spiro[4.5]decan-4-one | full agonism | 100 | 100 | 2.5 | – | – | – | – |
| CC(C)[C@H]1CC[C@@H](N2CCC3(CC2)C(=O)N(CCCCCCN(C)C)CN3c2ccccc2)CC1 (relative stereo) | full agonism | – | – | – | – | – | – | – |
| CC(C)[C@H]1CC[C@@H](N2CCC3(CC2)C(=O)N(CCCN(C)C)CN3c2ccccc2)CC1 (relative stereo) | full agonism | – | – | – | – | – | – | – |
| CNCCCCCCN1CN(c2ccccc2)C2(CCN([C@H]3CC[C@@H](C(C)C)CC3)CC2)C1=O (relative stereo) | full agonism | 3000 | 3000 | 2.2 | – | – | – | – |
| cis-3-(13-Aminoethyl-10,13,16-triazahexadecan)-8-(4-isopropyl-cyclohexyl)-1-phenyl-1,3,8-triaza-spiro[4.5]decan-4-one | full agonism | 100 | 10 | 4.4 | – | – | – | – |
| CC(C)[C@H]1CC[C@@H](N2CCC3(CC2)C(=O)N(CCCN)CN3c2ccccc2)CC1 (relative stereo) | full agonism | 3000 | 1000 | 2.5 | – | – | – | PO Dose at which max diuresis is achieved (Male SD/TAC rats): 1000 nmol/kg; Lovest Dose at which increased diuresis is achieved nMol/kg. I.e. >1.5 PO (Male SD/TAC rats): 1000 nmol/kg; PO max effect. (Male SD/TAC rats): 1.9 |
| CC(C)[C@H]1CC[C@@H](N2CCC3(CC2)C(=O)N(CCCCCCCCCN(C)C)CN3c2ccccc2)CC1 (relative stereo) | – | – | – | – | 1 | 3000 | 3000 | Lovest Dose at which increased diuresis is achieved nMol/kg. I.e. >1.5 PO (Male SD/TAC rats): 100 nmol/kg; PO max effect. (Male SD/TAC rats): 2.3; dose with statistical significant decrease in locomotor activity during the first 30 minutes (mice; foreign cage, p<0.05): 10000 nmol/kg; dose at which the mice died after injection (male NMRI mice; i.v.): 30000 nmol/kg; observed effect after i.v. administration (male NMRI mice): analgesia |
| CC(C)[C@H]1CC[C@@H](N2CCC3(CC2)C(=O)N(CCCCCCCCCNCCNCCNCCNCCN)CN3c2ccccc2)CC1 (relative stereo) | full agonism | 300 | 30 | 3.3 | 100 | 300 | 100 | PO Dose at which max diuresis is achieved (Male SD/TAC rats): 300 nmol/kg; Lovest Dose at which increased diuresis is achieved nMol/kg. I.e. >1.5 PO (Male SD/TAC rats): 300 nmol/kg; PO max effect. (Male SD/TAC rats): 1.8; dose with statistical significant decrease in locomotor activity during the first 30 minutes (mice; foreign cage, p<0.05): 1000 nmol/kg; dose at which the mice died after injection (male NMRI mice; i.v.): 2e+09 nmol/kg; observed effect after i.v. administration (male NMRI mice): analgesia; F % (oral bioavailability) [1]: <1%; T½ min (half-life) [1]: 225 min |
| cis-3-(7-Aminoethyl-4,7,10-triazadecan)-8-(4-isopropyl-cyclohexyl)-1-phenyl-1,3,8-triaza-spiro[4.5]decan-4-one | full agonism | 1000 | 10 | 4.8 | 10 | <300 | <100 | effect on diuresis (in words) (Male SD/TAC rats): significantly increase diuresis; PO Dose at which max diuresis is achieved (Male SD/TAC rats): 3000 nmol/kg; Lovest Dose at which increased diuresis is achieved nMol/kg. I.e. >1.5 PO (Male SD/TAC rats): 1000 nmol/kg; PO max effect. (Male SD/TAC rats): 1.9; dose at which the mice died after injection (male NMRI mice; i.v.): 2e+09 nmol/kg; time to death after injection (male NMRI mice; i.v., at the lethal dose stated for the compound): approximately 1 minutes; dose at which statistical significant analgesia was observed at 15 and 30 minutes (male NMRI mice; i.v., gridshock, at 15 and 30 minutes): 1000 nmol/kg; observed effect after i.v. administration (male NMRI mice): analgesia; F % (oral bioavailability) [1]: <1%; T½ min (half-life) [1]: 45 min; oral availability (in words) [1]: orally available |
| CC(C)C1CCC(N2CCC3(CC2)C(=O)NCN3c2ccccc2)CC1 (stereo not drawn) | – | 3000 | 1000 | 3.3 | 1000 | 300 | 300 | dose with statistical significant decrease in locomotor activity from 15-30 minutes (mice; foreign cage): 1000 nmol/kg and 2000 nmol/kg; dose with statistical significant increase in locomotor activity during the last 30 minutes (mice; foreign cage, p<0.05): 1000 nmol/kg; dose after which the mice were highly sedated (test worthless) (male NMRI mice; i.v.): 3000 nmol/kg; F % (oral bioavailability) [1]: 4 ± 0.3%; T½ min (half-life) [1]: 36 min |
| CC(C)[C@H]1CC[C@@H](N2CCC3(CC2)C(=O)N(CCCCCCCCCN2CCCNCCNCCCNCC2)CN3c2ccccc2)CC1 (relative stereo) | – | 1000 | 100 | 3.3 | 100 | <1000 | 3000 | effect on diuresis (in words) (Male SD/TAC rats): significantly increase diuresis; dose at which the mice died after injection (male NMRI mice; i.v.): 10000 nmol/kg; observed effect after i.v. administration (male NMRI mice): analgesia |
| CC(C)[C@H]1CC[C@@H](N2CCC3(CC2)C(=O)N(CCCCCCN)CN3c2ccccc2)CC1 (relative stereo) | full agonism | – | – | – | – | – | – | – |
